Columns and labels:
human liver microtissues = assay: LPS-sensitization assay in liver microtissues
human hepatocytes = test system: human hepatocytes; set-up: method as in Thompson et al. 2012; conditions: ref Thompson et al. 2012; cited from earlier work

SMILES | sensitization of liver microtissues by LPS (innate immune activation) (human liver microtissues) | CVB of marketed drugs without high risk of hepatotoxicity (human hepatocytes)
N[C@@H]1[C@H]2CN(c3nc4c(cc3F)c(=O)c(C(=O)O)cn4-c3ccc(F)cc3F)C[C@@H]12 [trovafloxacin, reference compound] | LPS sensitized liver microtissues | 
CC(C)Cc1ccc(C(C)C(=O)O)cc1 (centres unmarked) [ibuprofen] |  | elevated CVB

— paper PMC11939078, “TAK-994 mechanistic investigation into drug-induced liver injury” (Toxicological Sciences, 2025)
